Measurements published in US20230390416A1, “COMPOSITIONS FOR INDUCING TUMOR IMMUNITY AND REDUCING DRUG TOLERANCE” (The Brigham and Women's Hospital, Inc., priority 2020, published 2023).

Key:
[1] = system: Hsp90; conditions: DTCCs; confocal microscopy and western blot
[2] = system: MDA-MB-468 DTCCs; assay: MICA/B expression by flow cytometry in DTCCs under Hsp90 inhibitors; type: cell-based, human; conditions: % MICA/B positively expressing cells, vehicle 54.7 ± 3.9
Description: (§1) Two schedules of drugs in combination were administered to the indicated TNBC parental cell lines (A). […] Plots generated using constant ratio drug combination. […] N=11 in biological replicate. • (D) Quantification of MICA/B mean fluorescence, corrected for background by negative control. […] N≥4 in biological replicate. • (I) In vitro drug synergy was determined using the Chau-Talalay method. Two schedules of drugs in combination were administered to the indicated TNBC parental cell lines (A). […] Plots generated using constant ratio drug combination. Values falling below 1.0 combination index=synergy. • (J) In silico prediction model of drug schedule on signaling pathways. […] The first drug was administered at the beginning of the experiment (t=0), followed by the second drug after 48 h (t=48). […] GAPDH loading control.
(§2) Human MDA-MB-231, MDA-MB-468, MDA-MB-436, MCF-7, mammary carcinoma 4T-1 cells (ATCC) and SUM159 (Bioivt) were purchased in the last 10 years and cultured in 10% fetal bovine serum in DMEM or RPMI media (Invitrogen, Carlsbad CA, USA). Cell lines were validated for absence of mycoplasma prior to use, by the sourcing agency. Cells were used within 10 passages from frozen stock vials obtained from the sourcing agency.

[3] = system: SUM 159 DTCCs; assay: as above; type: cell-based, human; conditions: % MICA/B positively expressing cells, vehicle 30.6 ± 0.9
Description: as §1, §2

[4] = system: MDA-MB-231 DTCCs; assay: as above; type: cell-based, human; conditions: % MICA/B positively expressing cells, overnight (radicicol 5 μM, FIG. 3C), vehicle 76.2 ± 1.1
Description: as §1, §2

C[C@@H]1C[C@H]2O[C@@H]2/C=C\C=C\C(=O)Cc2c(Cl)c(O)cc(O)c2C(=O)O1 [Radicicol, radicicol]
cytoplasmic sequestration of HSF-1 Ser326 and activation of pro-survival proteins [1]: reversed cytoplasmic sequestration of HSF-1^Ser326 and activation of pro-survival proteins
MICA (%) ± SEM [2]: 96.8 ± 1.8%
MICA (%) ± SEM [3]: 74.8 ± 0.5%
MICA (%) ± SEM [4]: 93.2 ± 0.9%
